Like-named read-outs stand apart in the source and are kept apart here.
How the values were obtained:
[1] = target: T1, human kappa opioid receptor (Homo sapiens, UniProt P41145); assay: biochemical; format: binding
T1 construct: expressed in transfected cells; host or cells: Chinese hamster ovary cells (CHO-hKOR), membranes

Sequences of proteins named here, by UniProt entry; tags and fusion partners are left off. A change or cut given only in a name is not applied to a line headed by its entry.
UniProt P41145: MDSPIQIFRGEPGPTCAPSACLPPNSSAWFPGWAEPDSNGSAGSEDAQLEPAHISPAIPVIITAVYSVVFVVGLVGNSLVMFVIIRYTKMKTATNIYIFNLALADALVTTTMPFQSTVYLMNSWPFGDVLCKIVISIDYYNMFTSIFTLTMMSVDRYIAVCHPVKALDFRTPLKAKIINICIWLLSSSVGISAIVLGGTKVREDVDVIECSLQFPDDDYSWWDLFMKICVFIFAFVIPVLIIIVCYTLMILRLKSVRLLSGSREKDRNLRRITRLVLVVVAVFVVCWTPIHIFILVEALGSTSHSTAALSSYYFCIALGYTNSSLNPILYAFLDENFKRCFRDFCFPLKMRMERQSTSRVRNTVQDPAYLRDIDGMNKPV

[2] = target: T1, human kappa opioid receptor; assay: biochemical

| Compound | Ki [1] | EC50 [2] | Ki ([1]; read-out: Ki) | Efficacy [2] | EC50 ([2]; read-out: EC50) |
| --- | --- | --- | --- | --- | --- |
| CCO[C@H]1C[C@@H](C(=O)OC)[C@]2(C)CC[C@H]3C(=O)O[C@H](c4ccoc4)C[C@]3(C)C2C1=O (stereo partly shown) [Compound 15, 2-ethoxy-salvinorin B] | 0.0079 ± 0.0003 µM | 0.0186 ± 0.0026 µM | – | – | – |
| 2-ethoxy-salvinorin B [Compound 15] | – | – | 0.0079 ± 0.0003 µM | 103% | 0.0186 ± 0.0026 µM |
| 2-epi-(N-methylacetamide)-salvinorin [Compound 80] | – | – | 0.0165 ± 0.0011 µM | 106% | 0.021 ± 0.0009 µM |
| COC(=O)[C@@H]1C[C@@H](N(C)C(C)=O)C(=O)C2[C@@]1(C)CC[C@H]1C(=O)O[C@H](c3ccoc3)C[C@]21C (stereo partly drawn) [Compound 80, 2-epi-(N-methylacetamide)-salvinorin] | 0.0165 ± 0.0011 µM | 0.021 ± 0.0007 µM | – | – | – |

From US20070213394A1 (priority 2004, published 2007)
